Assay [1] deals with T1, Rap guanine nucleotide exchange factor 3 (Homo sapiens) (UniProt O95398).
T1 sequence (whole entry): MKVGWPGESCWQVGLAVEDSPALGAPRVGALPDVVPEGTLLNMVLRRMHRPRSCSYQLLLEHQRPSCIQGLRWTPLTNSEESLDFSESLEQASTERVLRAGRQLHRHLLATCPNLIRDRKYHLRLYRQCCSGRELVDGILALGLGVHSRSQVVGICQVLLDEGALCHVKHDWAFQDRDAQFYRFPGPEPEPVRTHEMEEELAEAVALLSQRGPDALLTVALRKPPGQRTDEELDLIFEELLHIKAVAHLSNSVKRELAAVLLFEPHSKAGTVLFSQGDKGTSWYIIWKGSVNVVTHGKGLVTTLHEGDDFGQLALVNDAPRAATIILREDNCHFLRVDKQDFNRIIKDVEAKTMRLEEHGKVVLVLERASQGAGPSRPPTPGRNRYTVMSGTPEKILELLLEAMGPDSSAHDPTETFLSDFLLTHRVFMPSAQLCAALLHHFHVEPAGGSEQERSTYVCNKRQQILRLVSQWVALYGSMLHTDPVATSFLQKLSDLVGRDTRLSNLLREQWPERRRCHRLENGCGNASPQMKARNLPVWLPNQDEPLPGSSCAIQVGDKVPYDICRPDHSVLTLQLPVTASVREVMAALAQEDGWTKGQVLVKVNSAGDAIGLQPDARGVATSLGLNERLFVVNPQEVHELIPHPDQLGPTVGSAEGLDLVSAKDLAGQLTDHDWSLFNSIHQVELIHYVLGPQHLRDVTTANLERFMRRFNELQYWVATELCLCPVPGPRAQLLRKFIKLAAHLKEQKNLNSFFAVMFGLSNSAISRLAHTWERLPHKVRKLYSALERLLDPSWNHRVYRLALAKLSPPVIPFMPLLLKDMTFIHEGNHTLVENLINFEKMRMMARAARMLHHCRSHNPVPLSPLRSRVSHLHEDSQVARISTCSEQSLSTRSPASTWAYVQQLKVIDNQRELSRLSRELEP
The assay can be described thus: Binding affinity to human EPAC1 cAMP binding domain (149 to 318 residues) at 300 uM in presence of triton X-100 by [15N-1H]HSQC spectroscopic analysis.

For assay [2], the target named is T1, Rap guanine nucleotide exchange factor 3 (Homo sapiens). The assay can be described thus: Binding affinity to human EPAC1 cAMP binding domain (149 to 318 residues) assessed as change in chemical shift at >150 uM using aggregate form of compound by [15N-1H]HSQC spectroscopic analysis.
Assay [3] has the same target. The assay can be described thus: Binding affinity to human EPAC1 cAMP binding domain (149 to 318 residues) assessed as change in chemical shift at 100 uM in presence of triton-X 100 by 1H-1D NMR spectra analysis.
For assay [4] the target is unchanged. Briefly: Binding affinity to human EPAC1 cAMP binding domain (149 to 318 residues) at 50 to 200 uM using aggregate form of compound by dynamic light scattering analysis.

In ChEMBL document CHEMBL4396878, “Mechanisms of Specific versus Nonspecific Interactions of Aggregation-Prone Inhibitors and Attenuators” (J Med Chem, 2019) one finds Activity data, which are given here for one compound.

The structures appear in SMILES notation. The source made the active and inactive calls. No cut-off for these calls is given here.

For the compound `C[C@@H]1CCc2c(cc(Br)c(F)c2Br)N1C=O`, the outcome in assay [1], in assay [2] and in assay [4] was inactive. Moreover, in assay [3], the result was Active.
